According to ChEMBL document CHEMBL1154690, “Identification of novel, selective, and stable inhibitors of class II histone deacetylases. Validation studies of the inhibition of the enzymatic activity of HDAC4 by small molecules as a novel approach for cancer therapy” (J Med Chem, 2009):

Experiment: Selectivity ratio of IC50 for HDAC6 to IC50 for HDAC1

- Ratio IC50: 180
Structure (SMILES): O=C(O)c1cccc(-c2ccc(C(=O)C(F)(F)F)s2)c1
